# Legend:
# By UniProt entry, the sequences of proteins in these tests, tags left out. Residues count along the entry.
# UniProt P43680, 69-177 limits assumed: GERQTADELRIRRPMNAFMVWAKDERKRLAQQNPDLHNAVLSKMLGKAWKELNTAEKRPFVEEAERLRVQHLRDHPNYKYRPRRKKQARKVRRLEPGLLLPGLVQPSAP
# UniProt P35713, whole entry: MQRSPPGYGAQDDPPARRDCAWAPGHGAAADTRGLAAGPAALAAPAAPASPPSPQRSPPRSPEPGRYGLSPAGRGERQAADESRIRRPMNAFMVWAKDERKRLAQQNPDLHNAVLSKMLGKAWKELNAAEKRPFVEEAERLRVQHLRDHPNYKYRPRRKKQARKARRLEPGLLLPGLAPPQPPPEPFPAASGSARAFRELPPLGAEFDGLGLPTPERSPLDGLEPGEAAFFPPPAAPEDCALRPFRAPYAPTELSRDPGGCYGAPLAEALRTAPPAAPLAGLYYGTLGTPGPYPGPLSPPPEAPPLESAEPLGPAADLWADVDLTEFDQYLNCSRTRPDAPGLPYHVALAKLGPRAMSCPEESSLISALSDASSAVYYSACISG
# UniProt P35354, 18-604 limits assumed: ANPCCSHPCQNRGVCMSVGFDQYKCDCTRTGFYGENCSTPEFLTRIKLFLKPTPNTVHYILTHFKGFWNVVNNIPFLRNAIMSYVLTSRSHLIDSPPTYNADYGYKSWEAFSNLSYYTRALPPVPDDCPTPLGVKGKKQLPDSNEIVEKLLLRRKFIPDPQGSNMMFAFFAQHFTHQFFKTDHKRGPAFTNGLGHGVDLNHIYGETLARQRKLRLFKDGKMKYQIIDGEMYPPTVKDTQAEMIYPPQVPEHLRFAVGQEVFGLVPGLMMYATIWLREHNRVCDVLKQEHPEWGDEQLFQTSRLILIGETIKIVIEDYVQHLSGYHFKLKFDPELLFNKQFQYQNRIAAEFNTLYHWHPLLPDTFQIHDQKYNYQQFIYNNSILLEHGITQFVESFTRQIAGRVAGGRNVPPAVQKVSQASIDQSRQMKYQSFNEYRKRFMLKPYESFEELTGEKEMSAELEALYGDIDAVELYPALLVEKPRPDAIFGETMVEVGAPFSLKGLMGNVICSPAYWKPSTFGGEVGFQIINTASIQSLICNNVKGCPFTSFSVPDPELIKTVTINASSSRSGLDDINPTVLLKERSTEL
# UniProt F1N1F9, 1-410: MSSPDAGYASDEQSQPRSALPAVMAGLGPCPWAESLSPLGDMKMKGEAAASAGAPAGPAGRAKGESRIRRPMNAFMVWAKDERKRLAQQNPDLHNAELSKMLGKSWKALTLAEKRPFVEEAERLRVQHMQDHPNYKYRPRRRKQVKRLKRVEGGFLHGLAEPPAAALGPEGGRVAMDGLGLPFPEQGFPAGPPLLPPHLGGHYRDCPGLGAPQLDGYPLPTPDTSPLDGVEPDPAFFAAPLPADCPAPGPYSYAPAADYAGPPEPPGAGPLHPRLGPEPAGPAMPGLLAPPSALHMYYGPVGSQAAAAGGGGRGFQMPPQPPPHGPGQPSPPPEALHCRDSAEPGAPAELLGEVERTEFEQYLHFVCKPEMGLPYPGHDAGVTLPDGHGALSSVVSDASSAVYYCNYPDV
# zebrafish larvae = assay: Zebrafish vascular phenotype, tg(fli1a:eGFP,−6.5kdrl:mCherry)
# SOX18[109] HMG fragment = SOX18[109] HMG fragment (Mus musculus (Mouse), UniProt P43680); assay: FP DNA-binding competition assay, SOX18[109] HMG fragment
# mouse SOX18-HMG (109aa) = mouse SOX18-HMG (109aa) (Mus musculus (Mouse), UniProt P43680); assay: Direct protein binding assay (thermal aggregation, static light scattering); conditions: 500 μM for Sm4 and Sm14, 1.5 mM for Sm5
# SOX18-MEF2C interaction = SOX18-MEF2C interaction (Homo sapiens (Human), UniProt P35713); assay: ALPHAScreen SOX18-MEF2C protein-protein interaction
# [1] = system: Sox7, Sox18 and Rbpj (Dll4 in3 enhancer); assay: Zebrafish tg(Dll4 in3:eGFP) SoxF/Notch reporter; conditions: 2 μM Sm4 from 13 hpf
# human COX2 = human COX2 (Homo sapiens (Human), UniProt P35354); assay: COX2 enzymatic assay; conditions: up to a concentration of 200 μM
# [2] = Critical micelle concentration (CMC) assay; conditions: threshold concentration of micelle formation in 200 mM NaCl or FP buffer
# SOX17 = SOX17 (Bos taurus, UniProt F1N1F9); assay: Cell based reporter assay for SOX17 activity (ECE1-TK-β-gal, BAECs); conditions: any tested concentration (≤50 μM)
# [3] = system: combined activity of Sox7 and Sox18; assay: Zebrafish tg(−6.5kdrl:eGFP) SoxF reporter; format: in vivo
# Procedure: Total RNA was extracted using RNeasy mini kit (Qiagen, 74106) according to the manufacturers protocol, including on column DNA digestion. cDNA was synthetized from 1 μg of purified RNA using the high capacity cDNA reverse transcription kit (Life Technologies, 4368813). Amplification and quantitation of target cDNA was performed in technical triplicate of at least 3 biological replicates using the SYBR green (Life Technologies, 4312704) methods. Reactions were run in 10 μL in 384-well plates using the ViiA 7 Real-Time PCR system. Housekeeper genes (β-actin for tg(Dll4 in3:eGFP), ef1α for tg(−6.5kdrl:eGFP), chd5 for tg(flila:eGFP, −6.5kdrl:mCherry), RPL13 and GAPDH for HUVECs) were selected based on the stability of their expression throughout the set of experimental conditions, or chosen on grounds of their vascular expression to normalize to endothelial cell content. Primer efficiencies were calculated using LinRegPCR, and amplification data was analysed using ViiA7 software and the Q-gene PCR analysis template.
# Zebrafish were maintained as previously described (Hogan et al. 2009), and all procedures involving animals conformed to guidelines of the animal ethics committee at the University of Queensland (IMB/030/16/NHMRC/ARC/HF) or were approved by local ethical review and licensed by the UK Home Office (PPL 30/2783 and PPL 30/3324). […]
smiles,measurement,setting,value
O=C(O)c1c(O)cccc1CCc1ccc2ccccc2c1,qRT-PCR of blood vascular markers,"zebrafish larvae; 1.5 μM Sm4, 24 and 48 hpf, vs DMSO",significant dysregulation of arterial and venous genes
same,vascular phenotype,zebrafish larvae; 1.5 μM Sm4 from 16 hpf,enlarged posterior cardinal vein (PCV) at the expense of the dorsal aorta (DA)
same,Sox7 specific phenotype (lateral dorsal artery),"zebrafish larvae; zebrafish, in vivo",minor malformation to the LDA
same,"SOX18-DNA binding inhibition (FP, words)","SOX18[109] HMG fragment; SAR library, SOX18[109]",inhibit both DNA and PPI
same,IC50,"SOX18[109] HMG fragment; read-out: DNA-binding inhibition IC50, SOX18 HMG, HMG only fragment",200 to 220 µM
same,increase in Tagg,mouse SOX18-HMG (109aa),more than 3 °C
same,effect on SOX18-MEF2C interaction,SOX18-MEF2C interaction,no effect
same,"Dll4 in3 enhancer activity, Sm4 alone",[1],mild repressive effect
same,"increase of repressive effect, rbpj MO at suboptimal dose combined with Sm4",[1],11.5%
same,COX-2 inhibitory activity,human COX2,None of the SOX18 inhibitor display any COX-1 or COX-2 inhibitory activity
same,CMC,[2],>1000 µM
same,transcriptional activity of SOX17,SOX17,did not affect
same,reduction of SOX18-dependent egfp transcript levels,"[3]; 1 μM Sm4 from 20 hpf, qRT-PCR",61%
same,toxicity in zebrafish embryos,[3]; treated at 20 hpf,no evidence of toxicity
